Read-outs that look alike come from different tables or passages of the source.

Sequences of proteins named here, by UniProt entry; tags and fusion partners are left off. A line that says so, or that is headed by a name, gives the form on record, which may keep a tag or linker. Residues count along the entry.
UniProt P00519, 229-512 with tags or gaps: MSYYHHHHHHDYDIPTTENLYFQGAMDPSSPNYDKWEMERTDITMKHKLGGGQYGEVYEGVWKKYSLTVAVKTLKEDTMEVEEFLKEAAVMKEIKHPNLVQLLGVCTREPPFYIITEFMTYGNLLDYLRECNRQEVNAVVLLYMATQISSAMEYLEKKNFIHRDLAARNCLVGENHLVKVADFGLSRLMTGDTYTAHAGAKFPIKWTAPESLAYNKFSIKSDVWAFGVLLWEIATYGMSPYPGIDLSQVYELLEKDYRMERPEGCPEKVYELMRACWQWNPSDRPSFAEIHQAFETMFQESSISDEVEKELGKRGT
UniProt P00519, 229-496 with tags or gaps T315I: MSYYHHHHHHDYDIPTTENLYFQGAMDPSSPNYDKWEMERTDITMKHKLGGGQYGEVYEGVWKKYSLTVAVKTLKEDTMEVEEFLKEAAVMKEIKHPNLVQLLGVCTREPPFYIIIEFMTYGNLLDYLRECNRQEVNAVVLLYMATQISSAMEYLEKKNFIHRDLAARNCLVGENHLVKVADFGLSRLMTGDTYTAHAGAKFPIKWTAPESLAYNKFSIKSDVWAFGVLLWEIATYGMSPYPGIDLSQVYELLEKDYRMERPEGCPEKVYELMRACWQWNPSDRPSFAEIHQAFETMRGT

In assay [1] the test system is BaF3 cells transfected with bcr-Abl point mutant E255K. Put plainly: Cell proliferation assay, BaF3 E255K bcr-abl. Format: cell-based. To be noted: read-out: BaF3 E255K bcr-abl IC50, 72 hours, Cell Titer Blue. A general note: The colour change of resazurin is a common sign of viable cells or microbes.
The target in assay [2] is pAbl kinase (Seq. ID no. 1) (Homo sapiens, UniProt P00519). Put plainly: pAbl kinase spectrophotometric coupled kinase assay. The conditions noted are these: read-out: p-Abl IC50, phosphorylated-Abl kinase, 2 h preincubation, ATP 500 μM. Format: biochemical.
The test system of assay [3] is BaF3 cells transfected with bcr-Abl point mutant M351T. Nature of the assay: Cell proliferation assay, BaF3 M351T bcr-abl. Format: cell-based. To be noted: read-out: BaF3 M351T bcr-abl IC50, 72 hours, Cell Titer Blue.
Assay [4] addresses Abl(T315I) (Seq. ID no. 2) kinase (Homo sapiens, UniProt P00519, T315I). Put plainly: Abl(T315I) kinase spectrophotometric coupled kinase assay. Format: biochemical. To be noted: read-out: T315I Abl IC50, T315I mutant Abl kinase, 2 h preincubation, ATP 500 μM.
Assay [5] has as its system BaF3 cells transfected with wild type bcr-Abl. Put plainly: Cell proliferation assay, BaF3 wt bcr-abl. Format: cell-based. To be noted: read-out: BaF3 wt bcr-abl IC50, 72 hours, Cell Titer Blue.
Assay [6] concerns BaF3 cells transfected with bcr-Abl point mutant Y253F. Put plainly: Cell proliferation assay, BaF3 Y253F bcr-abl. Format: cell-based. To be noted: read-out: BaF3 Y253F bcr-abl IC50, 72 hours, Cell Titer Blue.
In assay [7] the target is Abl kinase (Seq. ID no. 1) (Homo sapiens, UniProt P00519). Put plainly: Abl kinase (u-Abl) spectrophotometric coupled kinase assay. Format: biochemical. To be noted: read-out: u-Abl IC50, unphosphorylated-Abl kinase, 2 h preincubation, ATP 500 μM.
Assay [8] has as its system BaF3 cells transfected with bcr-Abl point mutant T315I. Put plainly: Cell proliferation assay, BaF3 T315I bcr-abl. Format: cell-based. The conditions noted are these: read-out: BaF3 T315I bcr-abl IC50, 72 hours, Cell Titer Blue.

As usually defined, the IC50 is the point on the concentration scale where inhibition reaches its midpoint. As for `CC(C)c1cc(NC(=O)Nc2ccc(Oc3ccnc(C(N)=O)c3)cc2)n(-c2ccc3ncccc3c2)n1`, the IC50 in assay [1] is 1110 nM; in assay [2] it was greater than 500 nM; in assay [3], 54 nM; in assay [4], 1000 nM; in assay [5], 49 nM; in assay [6] it was 297 nM. For the same compound, the IC50 in assay [7] came out at 8 nM; in assay [8], 87 nM.

For the compound `CNC(=O)c1cc(Oc2ccc(NC(=O)Nc3cc(C(C)(C)C)nn3-c3ccc4[nH]ncc4c3)cc2)ccn1`, the IC50 in assay [2] was determined as 350 nM; in assay [4], 160 nM; in assay [7], 1.6 nM.

On to `CNC(=O)c1cc(Oc2ccc(NC(=O)Nc3cc(C(C)(C)C)nn3-c3ccc4ncccc4c3)cc2)ccn1`, for which the IC50 was determined as 368 nM in assay [1] (tested form: bis hydrochloride); 22 nM in assay [2] (tested form: bis hydrochloride); 35 nM in assay [3] (tested form: bis hydrochloride); 38 nM in assay [4] (tested form: bis hydrochloride); 16 nM in assay [5] (tested form: bis hydrochloride); 108 nM in assay [6] (tested form: bis hydrochloride). In addition, the results for the IC50 in assay [7] (tested form: bis hydrochloride) and in assay [8] (tested form: bis hydrochloride) were 1 nM and 12 nM, respectively.

(Values after patent US8586565B2, “Kinase inhibitors useful for the treatment of myleoproliferative diseases and other proliferative diseases” (Deciphera Pharmaceuticals, LLC, priority 2006, dated 2013).)
